The values that follow are results of earlier work, collected in paper PMC12655172, “Borylated 5-Membered Ring Iminosugars: Synthesis and Biological Evaluation for Glycosidase Inhibition and Anticancer Properties for Application in Boron Neutron Capture Therapy (BNCT)—Part 2” (Pharmaceuticals, 2025).

SMILES strings stand for the structures.

Holding throughout (conditions): no reference given; cited from earlier work
Data set [1] concerns the target α-glucosidase (rat maltase).
For data set [2], the target named is α-glucosidase (rat isomaltase).
Data set [3] concerns the target α-glucosidase (rat sucrase).

Usually IC50 stands for the point on the concentration scale where inhibition reaches its midpoint. `OCC(CO)N[C@H]1C[C@](O)(CO)[C@@H](O)[C@H](O)[C@H]1O` [voglibose]: the results for the IC50 in data set [1], in data set [2] and in data set [3] were 0.11 µM, 0.16 µM and 0.07 µM, respectively.
